≈ marks a conversion by molar mass, not a printed value.
What was measured:
Assay in all cases: ≥ marks a high value that may be exact or a test limit, other limits are often not marked, values filed in µg/mL are converted to µM
[1] = test system: Erwinia amylovora PMV 6076
[2] = test system: Pseudomonas syringae pv. syringae EPS 94
[3] = test system: Xanthomonas campestris pv. Vesicatoria 2133-2

MIC [1]: 3.54 µM (≈ 8.7 µg/mL)
MIC [2]: 3.54 µM (≈ 8.7 µg/mL)
MIC [3]: 1.77 µM (≈ 4.35 µg/mL)
SMILES: CC[C@H](C)[C@H](NC(=O)[C@H](CC(C)C)NC(=O)[C@H](C)NC(=O)[C@@H]1CCCN1C(=O)[C@H](CC(C)C)NC(=O)CNC(=O)[C@@H](NC(=O)[C@@H](NC(=O)[C@H](CC(C)C)NC(=O)[C@H](Cc1ccc(O)cc1)NC(=O)[C@H](CCCCN)NC(=O)[C@H](CC(C)C)NC(=O)[C@@H](NC(=O)[C@H](CCCCN)NC(=O)[C@H](CCCCN)NC(=O)[C@H](Cc1ccccc1)NC(=O)[C@H](CC(C)C)NC(=O)[C@H](CCCCN)NC(=O)[C@@H](N)CCCCN)[C@@H](C)CC)[C@@H](C)O)[C@@H](C)O)C(=O)N[C@@H](CO)C(=O)N[C@@H](Cc1c[nH]c2ccccc12)C(=O)O [KKLFKKILKYLTTGLPALISW]

Source: DBAASP
